Measurements: US20250099491A1, “PREVENTION OR TREATMENT OF CARDIOVASCULAR DISEASES WITH HIGH PENETRATION PRODRUGS OF ASPIRIN AND OTHER NSAIDS” (Techfields Inc., priority 2022, published 2025)

System: patients with ischemic strokes
Test: Phase 2 clinical study of spray in patients with ischemic strokes
Assay type: in vivo, human
Experimental: Each patient enrolled in Group A was administered the investigational drug in a double-blind manner for 16 weeks starting between 3 and 60 days after the onset of stroke symptoms (Day 1 of the study). The patients and/or their caregivers were instructed how to apply the investigational drug accurately so that patients or their caregivers would administer 20 sprays/dose of either the investigational drug or placebo twice daily (approximately every 12 hours) for a total daily dose of 280 mg of investigational drug. The 20 sprays of investigational drug were administered as follows: 4 sprays around the neck, 2 sprays to the left shoulder, 2 sprays to the right shoulder, 6 sprays to the chest, 3 sprays to the left leg, and 3 sprays to the right leg. Each spray was sprayed on a different area of the skin to reach maximum absorption. The patient would wait for at least 5 minutes to dress after the last spray so that the skin became completely dry.
Patients were asked to return to the study site at Weeks 4, 8, 12, and 16 for efficacy and safety assessments. After the Week 16 assessments had been performed, patients would start the open-label period of the study the next day and receive active treatment in an open-label manner through the end of the study (EOS) at Week 32. That is, patients who were receiving active treatment would continue to receive active treatment, and patients who were receiving placebo would switch to active treatment for the remaining 16 weeks of the study. Patients would receive only 1 dose of investigational drug on the Week 16 visit day. Patients would return to the study site at Week 24 and Week 32 (EOS) for efficacy and safety assessments. An Early Termination visit would occur if the patient was discontinued from the study prematurely. Patients would have a follow-up visit approximately 14 days after the Early Termination visit or the Week 32 (EOS) visit.
The spray bottle deposits […] of spray solution and 7 mg 2-(diethylamino)ethyl acetoxybenzoate free base per spray on the skin. Subjects were to apply each spray to a different skin area around the neck, chest, legs and arms based on the randomized dose level assigned.

CCN(CC)CCOC(=O)c1ccccc1OC(C)=O.Cl [Compound-1]
Barthel Index (5 Sprays (35 mg/dose bid), Week 4): 52.3 ± 11.4 | Barthel Index (5 Sprays (35 mg/dose bid), Week 8): 58.2 ± 11.3 | Barthel Index (5 Sprays (35 mg/dose bid), Week 16): 65.2 ± 10.1 | Barthel Index (5 Sprays (35 mg/dose bid), Week 24): 75.8 ± 8.8 | Barthel Index (5 Sprays (35 mg/dose bid), Week 32): 83.6 ± 6.8 | Barthel Index (5 Sprays (35 mg/dose bid), baseline): 48.4 ± 11.0 | Barthel Index (10 Sprays (70 mg/dose bid), Week 4): 58.9 ± 10.6 | Barthel Index (10 Sprays (70 mg/dose bid), Week 8): 75.3 ± 9.9 | Barthel Index (10 Sprays (70 mg/dose bid), Week 16): 92.2 ± 7.3 | Barthel Index (10 Sprays (70 mg/dose bid), Week 24): 96.9 ± 3.9 | Barthel Index (10 Sprays (70 mg/dose bid), Week 32): 99.0 ± 2.0 | Barthel Index (10 Sprays (70 mg/dose bid), baseline): 49.4 ± 11.8 | Barthel Index (20 Sprays (140 mg/dose bid), Week 4): 61.5 ± 12.0 | Barthel Index (20 Sprays (140 mg/dose bid), Week 8): 81.4 ± 9.7 | Barthel Index (20 Sprays (140 mg/dose bid), Week 16): 95.5 ± 5.7 | Barthel Index (20 Sprays (140 mg/dose bid), Week 24): 98.5 ± 2.9 | Barthel Index (20 Sprays (140 mg/dose bid), Week 32): 99.4 ± 1.6 | Barthel Index (20 Sprays (140 mg/dose bid), baseline): 50.3 ± 12.5
